The record followed here is PubChem BioAssay AID1259310 (The Scripps Research Institute Molecular Screening Center, 2017).

By UniProt entry, the sequences of proteins in these tests, tags left out.
UniProt Q969H0, whole entry, looked up: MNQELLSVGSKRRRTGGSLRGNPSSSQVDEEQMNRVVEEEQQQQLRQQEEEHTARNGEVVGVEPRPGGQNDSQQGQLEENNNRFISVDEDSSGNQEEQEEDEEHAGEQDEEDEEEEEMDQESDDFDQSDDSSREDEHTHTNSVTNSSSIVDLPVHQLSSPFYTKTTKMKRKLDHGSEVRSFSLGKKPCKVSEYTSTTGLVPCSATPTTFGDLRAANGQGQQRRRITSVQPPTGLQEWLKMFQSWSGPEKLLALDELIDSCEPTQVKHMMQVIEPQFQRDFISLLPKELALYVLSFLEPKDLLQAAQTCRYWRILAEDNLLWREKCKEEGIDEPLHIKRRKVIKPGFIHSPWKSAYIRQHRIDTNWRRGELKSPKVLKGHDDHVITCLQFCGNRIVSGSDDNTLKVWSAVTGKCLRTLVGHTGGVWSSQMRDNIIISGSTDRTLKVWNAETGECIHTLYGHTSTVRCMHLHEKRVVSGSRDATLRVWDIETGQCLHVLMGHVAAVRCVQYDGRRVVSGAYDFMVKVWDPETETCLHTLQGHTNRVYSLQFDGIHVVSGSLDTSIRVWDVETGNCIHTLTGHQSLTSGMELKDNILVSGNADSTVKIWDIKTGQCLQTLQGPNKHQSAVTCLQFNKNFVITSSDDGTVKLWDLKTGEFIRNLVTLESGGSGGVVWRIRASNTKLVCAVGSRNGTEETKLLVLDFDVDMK

Only a part is listed here, and it is no random draw. Activity calls are given as the source filed them. Cut-off read from the data, not from the text of the source: active = normalized activity above about 1.9%; inactive = the rest.

The target of this experiment is F-box/WD repeat-containing protein 7 (Homo sapiens) (UniProt Q969H0). In words: FBW7 E3 ligase activators, primary screen, biochemical, AlphaScreen, human (AID 1259310).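 Note: purified mutant Fbw7 with reduced substrate affinity.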 Particulars: AlphaScreen FBW7–phospho-cyclin E peptide binding, activator screen; at 26.1 µM; active compounds read high.
Turning to `CCOP(=Nc1nc2ccccc2n2nnnc12)(OCC)OCC`, the normalized activity (activation) is inactive: 0.48%.
Then `O=[N+]([O-])c1cc([N+](=O)[O-])c(OCC(O)C[n+]2ccccc2)c([N+](=O)[O-])c1` (stereo unspecified), with inactive: -0.29%; and `CCOP(=S)(OCC)c1cccc(C(=O)O)c1`, with inactive: -0.05%; and `O=[N+]([O-])c1cc([N+](=O)[O-])c(SCCNc2ccccc2)c([N+](=O)[O-])c1`, with inactive: -0.13%.
The value for `CC(C)NC(=O)N(Cc1ccco1)C1CCN(CCc2ccccn2)CC1` was inactive: 0.11%; that for `Cc1cc(NP2(=O)C=C(c3ccccc3)OC(c3ccccc3)=C2)n[nH]1` was inactive: -0.07%.
`Cn1c(SCC(=O)c2ccccc2OC(F)F)nc2ccccc21`: the normalized activity (activation) was inactive: 0.11%.
The value for `ClCCN1CCn2c1nc1ccccc12` was inactive: -0.17%; that for `CCOP(=O)(NNc1ccccc1)OCC` was inactive: 0.73%; that for `O=[N+]([O-])c1cc([N+](=O)[O-])c2nc(-c3ccc([N+](=O)[O-])o3)[nH]c2c1` was inactive: 0%.
The value for `O=C(COC(=O)C(O)(c1ccccc1)c1ccccc1)NCc1ccc2c(c1)OCO2` was inactive: -0.29%; that for `CCCCOP(=O)(OCCCC)N(CC)CC` was inactive: -0.01%.
The value for `CCOP(=O)(Nc1ccc(Br)cc1)OCC` was inactive: -0.05%; that for `O=C(c1ccc2c(c1)OCO2)N(Cc1ccco1)C1CCN(CCc2ccccn2)CC1` was inactive: -0.19%; that for `O=[N+]([O-])c1cc(/C=N/N=C/c2cc([N+](=O)[O-])cc([N+](=O)[O-])c2O)c(O)c([N+](=O)[O-])c1` was inactive: -0.52%.
For the molecule `C[n+]1c2n(c3ccccc31)CC(Cl)CS2` (stereo unspecified), the normalized activity (activation) is inactive: 0.61%.
Then `Cc1c(Nc2ccc([N+](=O)[O-])cc2[N+](=O)[O-])cccc1[N+](=O)[O-]`, with inactive: 0.06%; and `C/C(=N\Nc1ccc([N+](=O)[O-])cc1[N+](=O)[O-])c1cccc([N+](=O)[O-])c1`, with inactive: -0.06%.
Then `CN1C(=O)C2C(NC(=NCCN3CCOCC3)N2C)N(C)C1=O` (stereo unspecified), with inactive: 0.52%.
Turning to `CC(C)(C)C(=O)NC(Sc1ccncn1)C(Cl)(Cl)Cl` (stereo unspecified), the normalized activity (activation) is inactive: -0.2%.
The value for `Nc1c([N+](=O)[O-])cc(C(=O)c2cc([N+](=O)[O-])c(N)c([N+](=O)[O-])c2)cc1[N+](=O)[O-]` was inactive: -0.09%; that for `CC(=O)N(Cc1ccco1)C1CCN(CCc2cccs2)CC1` was inactive: -0.03%; that for `ClC(Cl)(Cl)C1=NP2(=NC(c3ccccc3)=N1)OCCCO2` was inactive: 0.06%.
`CCN/N=C/c1c([N+](=O)[O-])cc([N+](=O)[O-])cc1[N+](=O)[O-]`: the normalized activity (activation) is inactive: -0.1%.
The value for `CCOc1ccc(NC(=O)c2cc([N+](=O)[O-])cc([N+](=O)[O-])c2)c([N+](=O)[O-])c1` was inactive: 0.21%.
The value for `CCOP(=O)(Nc1cccc(C(F)(F)F)c1)OCC` was inactive: 0.08%; that for `Cc1ccc(S(=O)(=O)N2C(=O)CSC2C(Cl)(Cl)Cl)cc1` (stereo unspecified) was inactive: 0%; that for `Cc1cc(C)nc(NNc2c([N+](=O)[O-])cc([N+](=O)[O-])c(C)c2[N+](=O)[O-])n1` was inactive: -0.08%.
Then `O=C(N/N=C/c1ccc([N+](=O)[O-])cc1)c1cc([N+](=O)[O-])cc([N+](=O)[O-])c1`, with inactive: -0.15%.
For the molecule `Cc1cc(NP2(=O)C=C(c3ccccc3)SC(c3ccccc3)=C2)n[nH]1`, the normalized activity (activation) was inactive: 0.52%.
Then `Cc1nc(Nc2cccc([N+](=O)[O-])c2)nc(Nc2cccc([N+](=O)[O-])c2)c1[N+](=O)[O-]`, with inactive: -2.34%.
With `O=C(OC1CN2CCC1CC2)C1COc2ccccc2O1` (stereo unspecified), the normalized activity (activation) was inactive: 0.82%.
The value for `COP(=O)(NS(=O)(=O)c1ccc(Cl)cc1)OC` was inactive: -0.02%.
Turning to `O=C(CCNCCCl)c1ccccc1`, the normalized activity (activation) is inactive: -0.07%.
The value for `O=P(Nc1ccccn1)(OCC(F)(F)F)Oc1ccccc1` (stereo unspecified) was inactive: 0.18%.
The value for `CCCCOP1(=S)N=C2c3ccccc3CN2c2cc(N(C)C)ccc21` (stereo unspecified) was inactive: 0.07%; that for `CCc1nc2c(n1)c1c(non1O)c1c2no[n+]1[O-]` was inactive: 0.09%.
Take `CCOC(=O)c1ccccc1OP(=O)(OCC)SCC(C)C` (stereo unspecified): the normalized activity (activation) was inactive: 0.07%.
The value for `Cc1c([N+](=O)[O-])c([N+](=O)[O-])nn1CC(=O)Nc1cc(O)cc([N+](=O)[O-])c1` was inactive: -0.43%; that for `Cc1c([N+](=O)[O-])cc(C(=O)Nc2ccc([N+](=O)[O-])cc2)cc1[N+](=O)[O-]` was inactive: 0.02%.
For the molecule `Cc1cccc(NC2=NCC(CBr)S2)c1` (stereo unspecified), the normalized activity (activation) is inactive: 0.47%.
Then `N=C(N)SCC(Br)CN1C(=O)c2ccccc2C1=O` (stereo unspecified), with inactive: -0.03%; and `CC(C)OC(=O)NC(SC#N)C(Cl)(Cl)Cl` (stereo unspecified), with inactive: 0.49%.
The value for `O=P(/N=C(/N1CCOCC1)C(Cl)(Cl)Cl)(N1CCOCC1)N1CCOCC1` was inactive: -0.12%; that for `O=C(COC(=O)C(O)(c1ccccc1)c1ccccc1)NCc1cccs1` was inactive: 0.13%; that for `O=C(OC1CN2CCC1CC2)c1cccc(F)c1` (stereo unspecified) was inactive: -0.23%.
Then `CC1Cc2ccccc2N1C(=O)COC(=O)C(O)(c1ccccc1)c1ccccc1` (stereo unspecified), with inactive: 0.01%; and `CNC(=O)c1nsnc1NCCCl`, with inactive: -0.46%; and `CCOP(=O)(Nc1cccc(F)c1)OCC`, with inactive: 0.07%.
Regarding `O=C(N/N=C/c1ccc([N+](=O)[O-])o1)c1cc([N+](=O)[O-])cc([N+](=O)[O-])c1`, the normalized activity (activation) was inactive: -0.04%.
Turning to `COc1ccc(CCN2CCC(N(Cc3ccco3)C(=O)c3cccc(C#N)c3)CC2)cc1`, the normalized activity (activation) was inactive: -0.09%.
With `Cc1ccc(NP(=O)(OCC(C)C)OCC(C)C)nc1`, the normalized activity (activation) was inactive: 1.01%.
The value for `O=[N+]([O-])c1ccc(N/N=C/C=C/c2ccc([N+](=O)[O-])o2)c([N+](=O)[O-])c1` was inactive: -0.01%.
Take `COc1ccc(S(=O)(=O)N(CCCl)CCCl)cc1`: the normalized activity (activation) is inactive: 0.07%.
Consider `CC(C)NC(=O)N(Cc1cccnc1)C1CCN(CCc2cccs2)CC1`, for which the normalized activity (activation) was inactive: -0.01%.
The value for `O=C(Nc1c(Cl)cc([N+](=O)[O-])cc1[N+](=O)[O-])c1ccc([N+](=O)[O-])cc1` was inactive: -0.16%; that for `BrCC1Cn2c(nnc2-c2cccnc2)S1` (stereo unspecified) was inactive: -0.12%.
The value for `COc1ccc(/C=C2/C(=O)NC(=O)N(Cc3ccco3)C2=O)c(OC)c1` was inactive: -0.78%; that for `O=C(Nc1cccc(F)c1)N(Cc1ccco1)C1CCN(CCc2ccccn2)CC1` was inactive: 0.26%.
The value for `CC(C)NC(=O)N(Cc1ccco1)C1CCN(CCc2cccs2)CC1` was inactive: 0.03%; that for `O=P(/C=C(\Cl)c1ccccc1)(/C=C(\Cl)c1ccccc1)Nc1nncs1` was inactive: 0.02%; that for `O=[N+]([O-])c1cc([N+](=O)[O-])c(NCCCO)c([N+](=O)[O-])c1` was inactive: 0.15%.
For the molecule `CC(=O)OC1CN2CCC1C(c1ccccc1)C2` (stereo unspecified), the normalized activity (activation) was inactive: 0.33%.
As to `CCc1cc2c[n+](C3CCCCC3)sc2s1`, the normalized activity (activation) was inactive: -0.22%.
The value for `COc1ccccc1OP(=O)(Nc1ccccn1)Oc1ccccc1OC` was inactive: 0.08%; that for `O=C(COC(=O)C(O)(c1ccccc1)c1ccccc1)NCCN1C(=O)CSC1=O` was inactive: -0.15%.
Then `O=C(Nc1cccc(F)c1)N(Cc1ccco1)C1CCN(CCc2cccs2)CC1`, with inactive: 0.23%; and `O=C(COc1ccccc1[N+](=O)[O-])N/N=C/c1cc([N+](=O)[O-])cc([N+](=O)[O-])c1O`, with inactive: -0.15%.
The value for `C/C(=N\Nc1ccc([N+](=O)[O-])cc1[N+](=O)[O-])c1ccc([N+](=O)[O-])cc1` was inactive: -0.07%.
Regarding `O=C(OC1CN2CCC1CC2)c1cccc(Cl)c1` (stereo unspecified), the normalized activity (activation) is inactive: 0.66%.
Then `CCOc1ccc(S(=O)(=O)N(CCCl)CCCl)cc1`, with inactive: 1.27%; and `CC(C)OP(=O)(OC(C)C)N1CCCCC1`, with inactive: -0.14%; and `COC(=O)N(c1ccccc1)P1OCC(C)O1` (stereo unspecified), with inactive: 0.64%.
Then `CCOC(=O)C(C)NC(=O)CSP(=O)(OCC)OCC` (stereo unspecified), with inactive: 0.08%.
The value for `Nc1nonc1OCc1nonc1COc1nonc1N` was inactive: -0.03%.
As to `O=c1c2cc([N+](=O)[O-])ccc2[nH]c2c([N+](=O)[O-])cc([N+](=O)[O-])cc12`, the normalized activity (activation) was inactive: 0.12%.
Then `CC(=O)N(Cc1ccco1)C1CCN(CCc2ccccn2)CC1`, with inactive: 0.2%; and `COc1ccc([N+](=O)[O-])cc1NC(=O)c1ccc([N+](=O)[O-])cc1[N+](=O)[O-]`, with inactive: -0.07%.
Then `CCOP(=S)(NN(CCCl)c1ccccc1)OCC`, with inactive: -0.1%.
Then `CN(C(=O)Cc1ccc(Cl)c(Cl)c1)[C@@H]1CCCC[C@@H]1N1CCCC1`, with inactive: 0.1%.
`O=C(c1ccco1)N(Cc1cccnc1)C1CCN(CCc2ccccn2)CC1`: the normalized activity (activation) was inactive: 0.05%.
The value for `CC(=O)O[C@H]1CN2CCC1[C@@H](c1ccccc1)C2` (stereo partly specified) was inactive: -0.01%.
Then `CCOP(=O)(OCC)C(=O)c1ccccc1I`, with inactive: -0.28%; and `O=C(Nc1cccc(F)c1)N(Cc1cccnc1)C1CCN(CCc2cccs2)CC1`, with inactive: -0.16%.
Then `COC(=O)N(c1ccccc1)P1(=S)OCC(C)O1` (stereo unspecified), with inactive: 1.02%; and `O=P1(c2ccccc2)N=C(c2ccccc2)NC(C(Cl)(Cl)Cl)=N1` (stereo unspecified), with inactive: -0.06%.
In the case of `O=[N+]([O-])c1ccc(N/N=C/c2ccc([N+](=O)[O-])o2)c([N+](=O)[O-])c1`, the normalized activity (activation) was inactive: -0.08%.
Then `ClC1CSc2nc3ccccc3n2C1` (stereo unspecified), with inactive: -0.1%; and `O=C(NNc1ccc([N+](=O)[O-])cc1[N+](=O)[O-])c1cccc([N+](=O)[O-])c1`, with inactive: -0.22%; and `O=C(c1cccc([N+](=O)[O-])c1)c1ccc([N+](=O)[O-])c([N+](=O)[O-])c1`, with inactive: -0.49%.
Then `O=C(COC(=O)C(O)(c1ccccc1)c1ccccc1)NC12CC3CC(CC(C3)C1)C2`, with inactive: -0.04%.
